For this experiment, the species on record is Homo sapiens. In words: Selectivity index, ratio of IC50 for inhibition of human constitutive 20S proteasome beta 5 chymotrypsin-like activity to IC50 for inhibition of human 20S immunoproteasome beta 5 chymotrypsin-like activity.
For `C[C@H](NC(=O)[C@H](CC(=O)NOC(C)(C)C)NC(=O)CN1CCOCC1)C(=O)NCc1cccc2ccccc12`, the Ratio IC50 was determined as 104. Consider `COC[C@H](NC(=O)[C@H](CCC(=O)NC(C)(C)C)NC(=O)CCc1ccccc1)C(=O)NCc1cccc2ccccc12`, for which the Ratio IC50 came to 24.

In the case of `CC(C)(C)CNC(=O)C[C@H](NC(=O)CCc1ccccc1)C(=O)N[C@@H](Cc1ccc(F)cc1)C(=O)NCc1cccc2ccccc12`, the Ratio IC50 is 15.

For `COC[C@H](NC(=O)[C@H](CCC(=O)NC(C)(C)C)NS(=O)(=O)c1ccc(C)cc1)C(=O)NCc1ccc(F)c2ccccc12`, the Ratio IC50 turned out to be 1880. Take `Cc1cc(C(=O)N[C@@H](CC(=O)NOC(C)(C)C)C(=O)N[C@@H](C)C(=O)NCc2cccc3ccccc23)no1`: the Ratio IC50 is 76. The result for `Cc1ccc(S(=O)(=O)N[C@@H](CCC(=O)NC(C)(C)C)C(=O)N[C@@H](C)C(=O)NCc2ccc(F)c3ccccc23)cc1` reads 2330. For `Cc1ccc(S(=O)(=O)N[C@@H](CCC(=O)NC(C)(C)C)C(=O)N[C@@H](C)C(=O)NCc2cccc3ccccc23)cc1` the value was 1210; for `COC[C@H](NC(=O)[C@H](CC(=O)NC(C)(C)C)NS(=O)(=O)c1ccc(C)cc1)C(=O)NCc1ccc(F)c2ccccc12`, 246; for `Cc1cc(C(=O)N[C@@H](CCC(=O)NC(C)(C)C)C(=O)N[C@@H](C)C(=O)NCc2ccc(F)c3ccccc23)no1`, 508. Take `Cc1nc(C(=O)N[C@@H](CC(=O)NOC(C)(C)C)C(=O)N[C@@H](C)C(=O)NCc2cccc3ccccc23)cs1`: the Ratio IC50 amounted to 77. The result for `C[C@H](NC(=O)[C@H](CCC(=O)NC(C)(C)C)NC(=O)CCc1ccccc1)C(=O)NCc1cccc2ccccc12` reads 80. The result for `C[C@H](NC(=O)[C@H](CC(=O)NC(C)(C)C)NC(=O)C(=O)c1c[nH]c2ccccc12)C(=O)NCc1cccc2ccccc12` reads 118.

Source of the values: ChEMBL document CHEMBL4699588, “Structure-Activity Relationships of Noncovalent Immunoproteasome β5i-Selective Dipeptides” (J Med Chem, 2020).
